Source: US20210147343A1 (priority 2018, published 2021)

Sequences of proteins named here, by UniProt entry; tags and fusion partners are left off.
UniProt P35372, whole entry: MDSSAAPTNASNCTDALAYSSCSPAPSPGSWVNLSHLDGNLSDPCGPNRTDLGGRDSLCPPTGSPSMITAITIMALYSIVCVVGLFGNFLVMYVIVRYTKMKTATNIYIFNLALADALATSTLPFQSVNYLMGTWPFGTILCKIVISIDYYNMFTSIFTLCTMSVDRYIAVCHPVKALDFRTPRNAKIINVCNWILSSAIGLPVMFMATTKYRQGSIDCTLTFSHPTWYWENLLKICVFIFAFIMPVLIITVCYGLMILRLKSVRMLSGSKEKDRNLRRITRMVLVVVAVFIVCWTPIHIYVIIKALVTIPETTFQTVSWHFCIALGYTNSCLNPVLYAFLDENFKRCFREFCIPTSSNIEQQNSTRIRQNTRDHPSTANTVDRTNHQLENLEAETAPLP

Target: mu opioid receptor (MOR) (Homo sapiens, UniProt P35372)
Test: MOR cAMP agonist assay

## C[C@H](CC(=O)NC[C@H](Cc1ccc(C(N)=O)cc1)N(C)C)c1ccccc1 [Compound A-10, 4-((S)-2-(dimethylamino)-3-((R)-3-phenylbutanamido)propyl)benzamide]
  EC50: > 1000 nM
